For one protein, Km results are on record in ChEMBL document CHEMBL3600307, “Synthesis, kinetic mechanism and docking studies of vanillin derivatives as inhibitors of mushroom tyrosinase” (Bioorg Med Chem, 2015).

Substrate in this series: COc1cc(C=O)ccc1OC(=O)COC(=O)/C=C/c1ccc(Cl)cc1
Conditions: Agaricus bisporus; 33.3 uM.

B1: Tyrosinase (Agaricus bisporus), O42713 (protein)
chain: MSLIATVGPTGGVKNRLNIVDFVKNEKFFTLYVRSLELLQAKEQHDYSSFFQLAGIHGLPFTEWAKERPSMNLYKAGYCTHGQVLFPTWHRTYLSVLEQILQGAAIEVAKKFTSNQTDWVQAAQDLRQPYWDWGFELMPPDEVIKNEEVNITNYDGKKISVKNPILRYHFHPIDPSFKPYGDFATWRTTVRNPDRNRREDIPGLIKKMRLEEGQIREKTYNMLKFNDAWERFSNHGISDDQHANSLESVHDDIHVMVGYGKIEGHMDHPFFAAFDPIFWLHHTNVDRLLSLWKAINPDVWVTSGRNRDGTMGIAPNAQINSETPLEPFYQSGDKVWTSASLADTARLGYSYPDFDKLVGGTKELIRDAIDDLIDERYGSKPSSGARNTAFDLLADFKGITKEHKEDLKMYDWTIHVAFKKFELKESFSLLFYFASDGGDYDQENCFVGSINAFRGTAPETCANCQDNENLIQEGFIHLNHYLARDLESFEPQDVHKFLKEKGLSYKLYSRGDKPLTSLSVKIEGRPLHLPPGEHRPKYDHTQARVVFDDVAVHVIN
B1: the Km was determined as 1050 µM.

In general, Km refers to the concentration of substrate that gives half-maximal velocity.
